# Laboratory results as given in patent publication US11932650B2, “Potent agelastatin derivatives as modulators for cancer invasion and metastasis” (Massachusetts Institute of Technology, priority 2017, dated 2024).
# System: breast cancer cell line SUM1315 and Tiam1-deficient fibroblast mixed cell xenograft
# Test: Direct treatment of mixed cell tumor-fibroblast xenograft-bearing mice
# Settings: AgA 1.25 mg/kg; FIG. 11
smiles,measurement,value
"CN1C(=O)N[C@H]2[C@@H]3NC(=O)c4ccc(Br)n4[C@@H]3C[C@]21O [AgA (1), (−)-agelastatin A]",mice with 0 lung metastases,~800
